Values of other authors as cited in article PMC11768359, “2-Aminothiophene Derivatives—New Drug Candidates Against Leishmaniasis: Drug Design, Synthesis, Pharmacomodulation, and Antileishmanial Activity” (Pharmaceuticals, 2025).

Test system: RAW 264.7 macrophages
Conditions: previously published; cited from earlier work

Structure (SMILES): N#Cc1c(N)sc2c1CCCC2 [Compound 5]
- CC50: 125 µM
